Compound activity as filed in PubChem.
eIF4H inh – human eIF4H binding inhibitors, primary screen, translation initiation inhibitor project, biochemical, uHTS, fluorescence polarization; Eukaryotic translation initiation factor 4H (Homo sapiens), Q15056; eIF4H fluorescence polarization binding assay; inhibition, % at 35 µM; 290,000 tested, 0.94% active;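 note: calls also rest on retests at 20 µM and on dose response follow-up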
Pemphigus Ab inh – inhibitors of pemphigus antibody binding to DSG3, primary screen, biochemical, bead-based, flow cytometry, scFv-GFP. 310,000 tested, 0.48% active. Desmoglein-3 (Homo sapiens), P32926. binding (percent of control), % at 10 µM. AID 588358, 2011. DSG3-coupled beads, scFv-anti-DSG3-GFP binding; hits give low values;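 active = binding more than 3 SD below its plate's average and above zero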;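 note: hits lower antibody fragment binding to DSG3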
MLLE-PAM2 inh – inhibitors of PABP1 MLLE–PAM2 peptide binding, primary screen, biochemical, fluorescence polarization, FITC-PAM2, GST-MLLE; 360,000 tested, 0.36% active; AID 588489, 2011; Polyadenylate-binding protein 1 (Homo sapiens), P11940; inhibition, % at 20 µM; in the data active = inhibition above about 35%, passing the limit was not always enough;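 note: plate controls were DMSO wells with GST-MLLE for no effect and wells lacking GST-MLLE protein for full effect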
Yeast UUG start – modulators of yeast start codon fidelity, primary screen, whole organism, S. cerevisiae, single point, plate reader; S. cerevisiae UUG-firefly luciferase reporter, luminescence/redox ratio; activity score, % at 18.7 µM; actives 0.13% (n = 350,000); AID 602363, 2012;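 active = replicate mean at a twofold rise or more, about +100% in these data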;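 also: firefly luciferase made from a UUG start codon reports start codon fidelity; reporter light over untreated wells divided by growth signal over untreated wells; some hits fall short of that in this replicate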
PABP polyA inh – PABP poly(A) RNA binding inhibitors, primary screen, biochemical, fluorescence polarization, uHTS | Polyadenylate-binding protein 1 (Homo sapiens), P11940 | calls only at 35 µM | 290,000 tested, 1% active;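 note: calls also rest on retests at 20 µM and on dose response follow-up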
Active calls of the source: *; i = inactive; x = not tested or not shown; + = active, no number. Shown are actives, neighbours in structure and some others; about 1.5% of the full set was active somewhere. Unless noted, the rule behind the calls is not given here.

The chains behind the UniProt entries cited, without tags or fusion partners.
Desmoglein-3 (Homo sapiens), P32926, UniProt P32926, whole entry, looked up: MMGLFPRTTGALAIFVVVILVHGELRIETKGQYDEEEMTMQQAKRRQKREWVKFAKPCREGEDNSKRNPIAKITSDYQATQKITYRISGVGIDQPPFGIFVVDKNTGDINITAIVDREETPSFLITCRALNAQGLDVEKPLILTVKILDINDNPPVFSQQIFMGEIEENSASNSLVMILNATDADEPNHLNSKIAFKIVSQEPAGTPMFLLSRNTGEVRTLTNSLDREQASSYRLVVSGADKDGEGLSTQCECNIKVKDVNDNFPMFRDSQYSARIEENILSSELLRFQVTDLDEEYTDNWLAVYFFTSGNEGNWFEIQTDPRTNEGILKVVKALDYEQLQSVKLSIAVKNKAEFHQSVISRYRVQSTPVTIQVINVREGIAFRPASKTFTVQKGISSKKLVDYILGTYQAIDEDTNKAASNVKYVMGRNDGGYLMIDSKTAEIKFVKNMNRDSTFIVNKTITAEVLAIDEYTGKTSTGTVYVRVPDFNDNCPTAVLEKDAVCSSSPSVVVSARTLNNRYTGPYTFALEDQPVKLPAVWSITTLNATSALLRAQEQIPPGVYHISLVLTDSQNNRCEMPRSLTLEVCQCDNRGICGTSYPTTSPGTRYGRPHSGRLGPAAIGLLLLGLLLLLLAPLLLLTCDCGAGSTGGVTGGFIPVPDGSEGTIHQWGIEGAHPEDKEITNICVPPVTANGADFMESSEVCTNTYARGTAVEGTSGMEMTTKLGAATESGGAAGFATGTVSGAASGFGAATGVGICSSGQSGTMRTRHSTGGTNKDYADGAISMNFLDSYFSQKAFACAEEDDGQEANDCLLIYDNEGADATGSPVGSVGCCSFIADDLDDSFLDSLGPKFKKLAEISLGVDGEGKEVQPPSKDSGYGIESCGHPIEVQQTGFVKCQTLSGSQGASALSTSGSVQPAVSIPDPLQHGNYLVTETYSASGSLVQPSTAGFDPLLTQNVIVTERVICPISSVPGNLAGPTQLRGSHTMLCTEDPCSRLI
Polyadenylate-binding protein 1 (Homo sapiens), P11940, UniProt P11940, whole entry, looked up: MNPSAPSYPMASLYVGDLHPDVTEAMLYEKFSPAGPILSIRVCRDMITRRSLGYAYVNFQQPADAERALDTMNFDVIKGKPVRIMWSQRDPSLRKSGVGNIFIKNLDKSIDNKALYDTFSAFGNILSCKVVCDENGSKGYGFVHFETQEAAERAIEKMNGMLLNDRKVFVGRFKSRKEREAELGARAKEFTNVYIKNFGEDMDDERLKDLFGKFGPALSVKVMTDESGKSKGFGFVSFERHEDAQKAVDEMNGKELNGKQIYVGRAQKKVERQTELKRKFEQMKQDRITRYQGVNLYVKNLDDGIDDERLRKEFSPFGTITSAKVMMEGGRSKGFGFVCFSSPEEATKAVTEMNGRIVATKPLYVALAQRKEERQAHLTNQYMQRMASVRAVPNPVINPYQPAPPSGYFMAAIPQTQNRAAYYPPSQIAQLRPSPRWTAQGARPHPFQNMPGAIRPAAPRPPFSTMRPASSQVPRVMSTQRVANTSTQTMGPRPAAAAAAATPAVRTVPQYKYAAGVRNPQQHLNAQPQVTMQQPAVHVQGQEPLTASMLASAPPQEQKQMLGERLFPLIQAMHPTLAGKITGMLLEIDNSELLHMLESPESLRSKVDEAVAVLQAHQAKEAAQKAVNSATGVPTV

Values in the order: eIF4H inh, Pemphigus Ab inh, MLLE-PAM2 inh, Yeast UUG start, PABP polyA inh
> C/C(=N\NC(=S)Nc1cccc(C)c1)c1cc2ccccc2o1
    7, 101, 43*, x, i
> Cc1ccc(/C=N/NC(=O)c2cc3c(ccc4ccccc43)o2)o1
    -6, x, -1, -21, i
> CCNC(=S)N/N=C(\C)c1cc2ccccc2o1
    7, 100, 13, x, i
> C[C@H]1CN([C@@H](C)CO)C(=O)c2cc(NC(=O)Cc3cn(C)c4ccccc34)ccc2O[C@H]1CN(C)S(=O)(=O)c1ccc(F)cc1
    x, x, x, -14, x
> Cc1ccc(S(=O)(=O)NCC[C@@H]2CC[C@@H](NC(=O)c3cnccn3)[C@@H](CO)O2)cc1
    x, x, x, 6, x
> Cc1ccc(S(=O)(=O)Nc2ccc3c(c2)C(=O)N([C@H](C)CO)C[C@H](C)[C@@H](CN(C)C(=O)Nc2c(C)noc2C)O3)cc1
    x, x, x, -16, x
> O=C(N/N=C/c1ccc([N+](=O)[O-])o1)c1ccccc1NS(=O)(=O)c1cccs1
    76, 95, -2, -20, +
> C/C(=N\Nc1ccc([N+](=O)[O-])cc1)c1cc2ccccc2o1
    57*, 106, -136, x, i
> O=C(N/N=C/c1ccc(O)c(Br)c1)c1cc2c(ccc3ccccc32)o1
    -7, 78*, 3, -8, i
> O=C(NN=Cc1ccc(F)cc1)c1ccccc1NS(=O)(=O)c1cccs1
    x, 97, 3, -12, x

New compounds follow.
Values in the order: eIF4H inh, Pemphigus Ab inh, MLLE-PAM2 inh, Yeast UUG start, PABP polyA inh
> CCC/C(=N/NC(=O)c1csc(C)c1C)c1ccc(Cl)s1
    active, x, 6, -9, i
> CCC/C(=N\NC(=O)c1ccco1)c1ccc(Cl)s1
    7, 99, -11, 1, i
> CCCCNC(=O)CN1C(=O)c2cccc(N)c2C1=O
    85*, x, 39*, x, +
> CC1CCCCC1NC(=O)CN1C(=O)c2cccc(N)c2C1=O (configuration not stated)
    106*, 95, 50*, x, +
> CCCn1c(C)cc(C(=O)CN2C(=O)c3cccc(N)c3C2=O)c1C
    85*, 104, 12, -5, +
> CN(C(=O)CN1C(=O)c2cccc(N)c2C1=O)C1CCCCC1
    x, 98, 40*, -12, x
> COc1ccccc1CNC(=O)CN1C(=O)c2cccc(N)c2C1=O
    41, 98, 27, -7, i
> CCN(CC)S(=O)(=O)c1cccc(-c2nnc(SCC(=O)c3cc(C)n(C4CC4)c3C)o2)c1
    70*, 107, -113, 4, +
> COc1ccc(N2C(=O)CSC2c2ccc(F)cc2)cc1 (configuration not stated)
    -5, 102, -6, -14, i
> COc1ccc(-n2sc3ccc(F)cc3c2=O)cc1
    x, 50*, 41*, -33, x

The list goes on:
Letters: A = eIF4H inh; B = Pemphigus Ab inh; C = MLLE-PAM2 inh; D = Yeast UUG start; E = PABP polyA inh
SMILES: Cc1ccc(C)c(-n2sc3ccc(F)cc3c2=O)c1
  A: x	B: 55*	C: 37	D: -35	E: x

SMILES: O=c1c2cc(F)ccc2sn1-c1ccc(F)cc1
  A: x	B: 49*	C: 43*	D: -25	E: x

SMILES: COc1ccc(-n2sc3ccccc3c2=O)cc1
  A: x	B: 74*	C: 36	D: -32	E: x

SMILES: O=C1CCCC(=O)N1c1ccc(F)cc1
  A: 10	B: 92	C: 7	D: -1	E: i

SMILES: C[C@@H]1CN([C@H](C)CO)C(=O)Cc2cc(NC(=O)Nc3ccccc3)ccc2O[C@H]1CN(C)C(=O)Nc1ccccc1
  A: x	B: x	C: x	D: -1	E: x

SMILES: C[C@@H]1CN([C@H](C)CO)C(=O)Cc2cc(NC(=O)Cn3cnnn3)ccc2O[C@H]1CN(C)Cc1ccc(C(=O)O)cc1
  A: x	B: x	C: x	D: -2	E: x

SMILES: CCCC(=O)Nc1ccc2c(c1)C(=O)N(C)C[C@@H](OC)[C@H](C)CN(Cc1ccc(-c3ccccn3)cc1)[C@H](C)CO2
  A: x	B: x	C: x	D: -2	E: x

SMILES: CC(C)c1ccc(N(CC(=O)NCc2ccco2)C(=O)CCC(=O)Nc2nccs2)cc1
  A: -3	B: -39*	C: 2	D: -15	E: i

SMILES: O=C(CCC(=O)N(CC(=O)NC1CCCC1)c1ccc(F)cc1)Nc1nccs1
  A: -4	B: 48*	C: 1	D: -4	E: i

SMILES: Fc1ccc(Br)cc1C1C=C(c2cccnc2)Nc2ncnn21 (configuration not stated)
  A: 5	B: 99	C: 48*	D: -22	E: i

SMILES: CC(C)(C)SCCNC(=O)CN(c1ccccc1)S(=O)(=O)c1ccc(F)cc1
  A: -2	B: 5.2*	C: 26	D: 11	E: i

SMILES: CC(C)(C)SCCNC(=O)CN(c1ccc(F)cc1)S(C)(=O)=O
  A: 8	B: 100	C: 1	D: -4	E: i

SMILES: Cn1nnnc1SCc1nc2scc(-c3ccc(Cl)cc3)c2c(=O)[nH]1
  A: 59*	B: 85	C: -90	D: x	E: +

Three entries from above, with the structure last.
eIF4H inh,Pemphigus Ab inh,MLLE-PAM2 inh,Yeast UUG start,PABP polyA inh,SMILES
x,x,x,-2,x,CCCC(=O)Nc1ccc2c(c1)C(=O)N(C)C[C@@H](OC)[C@H](C)CN(Cc1ccc(-c3ccccn3)cc1)[C@H](C)CO2
-3,-39*,2,-15,i,CC(C)c1ccc(N(CC(=O)NCc2ccco2)C(=O)CCC(=O)Nc2nccs2)cc1
-4,48*,1,-4,i,O=C(CCC(=O)N(CC(=O)NC1CCCC1)c1ccc(F)cc1)Nc1nccs1
